Source: PubChem BioAssay (NCI)
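Step 1: Grow cells in 96-well plates. Step 2: Expose to compound for 48 hours at 5 concentrations. Step 3: Interpolate endpoints linearly; if unreached, use highest concentration. GI50: concentration for 50% inhibition of growth. The concentration for full growth arrest is given as TGI.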

Assays:
Experiment in all cases: DTP human tumour cell line panel, 48 h
DMS 114 small cell lung = test system: DMS 114 small cell lung
MOLT-4 leukemia = test system: MOLT-4 leukemia
MALME-3M melanoma = test system: MALME-3M melanoma
LOX IMVI melanoma = test system: LOX IMVI melanoma
EKVX NSCLC = test system: EKVX NSCLC
UO-31 renal = test system: UO-31 renal
CCRF-CEM leukemia = test system: CCRF-CEM leukemia
SK-MEL-2 melanoma = test system: SK-MEL-2 melanoma
786-0 renal = test system: 786-0 renal
HCT-15 colon = test system: HCT-15 colon
UACC-257 melanoma = test system: UACC-257 melanoma
LXFL 529 NSCLC = test system: LXFL 529 NSCLC
SN12C renal = test system: SN12C renal
HCT-116 colon = test system: HCT-116 colon
HOP-18 NSCLC = test system: HOP-18 NSCLC
HCC-2998 colon = test system: HCC-2998 colon
ACHN renal = test system: ACHN renal
DLD-1 colon = test system: DLD-1 colon
NCI-H226 lung = test system: NCI-H226 lung
HT29 colon = test system: HT29 colon
HL-60(TB) leukemia = test system: HL-60(TB) leukemia
CAKI-1 renal = test system: CAKI-1 renal
SK-MEL-5 melanoma = test system: SK-MEL-5 melanoma
TK-10 renal = test system: TK-10 renal
M19-MEL melanoma = test system: M19-MEL melanoma
SF-295 CNS = test system: SF-295 CNS
M14 melanoma = test system: M14 melanoma
SW-620 colon = test system: SW-620 colon
U251 CNS = test system: U251 CNS
HOP-62 NSCLC = test system: HOP-62 NSCLC
OVCAR-8 ovarian = test system: OVCAR-8 ovarian
RXF 393 renal = test system: RXF 393 renal
KM20L2 colon = test system: KM20L2 colon
SNB-75 CNS = test system: SNB-75 CNS
A498 renal = test system: A498 renal
NCI-H23 lung = test system: NCI-H23 lung
HOP-92 NSCLC = test system: HOP-92 NSCLC
SR leukemia = test system: SR leukemia
SK-OV-3 ovarian = test system: SK-OV-3 ovarian
IGROV1 ovarian = test system: IGROV1 ovarian
DMS 273 small cell lung = test system: DMS 273 small cell lung
K-562 leukemia = test system: K-562 leukemia
RXF-631 renal = test system: RXF-631 renal
OVCAR-5 ovarian = test system: OVCAR-5 ovarian
NCI-H460 lung = test system: NCI-H460 lung
SF-268 CNS = test system: SF-268 CNS
KM12 colon = test system: KM12 colon
UACC-62 melanoma = test system: UACC-62 melanoma
NCI-H322M lung = test system: NCI-H322M lung
OVCAR-3 ovarian = test system: OVCAR-3 ovarian
NCI-H522 lung = test system: NCI-H522 lung
SNB-78 CNS = test system: SNB-78 CNS
OVCAR-4 ovarian = test system: OVCAR-4 ovarian
SK-MEL-28 melanoma = test system: SK-MEL-28 melanoma
A549 NSCLC = test system: A549 NSCLC
XF 498 CNS = test system: XF 498 CNS
SF-539 CNS = test system: SF-539 CNS
SNB-19 CNS = test system: SNB-19 CNS
COLO 205 colon = test system: COLO 205 colon
RPMI-8226 leukemia = test system: RPMI-8226 leukemia

With `O=[N+]([O-])N1C2OC3OC2N([N+](=O)[O-])C2OC3OC21` the GI50 (DMS 114 small cell lung) was 49 µM, the TGI (DMS 114 small cell lung) was 76.3 µM and the GI50 (MOLT-4 leukemia) was > 100 µM. The TGI (MOLT-4 leukemia) was > 100 µM, the GI50 (MALME-3M melanoma) was > 100 µM and the TGI (MALME-3M melanoma) was > 100 µM. For the same compound, the GI50 (LOX IMVI melanoma) was 50 µM, the TGI (LOX IMVI melanoma) was 84.3 µM and the GI50 (EKVX NSCLC) was > 100 µM. For the same compound, the TGI (EKVX NSCLC) was > 100 µM, the GI50 (UO-31 renal) was > 100 µM and the TGI (UO-31 renal) was > 100 µM. The GI50 (CCRF-CEM leukemia) was 62.8 µM, the TGI (CCRF-CEM leukemia) was > 100 µM and the GI50 (SK-MEL-2 melanoma) was > 100 µM. For the same compound, the TGI (SK-MEL-2 melanoma) was > 100 µM, the GI50 (786-0 renal) was > 100 µM and the TGI (786-0 renal) was > 100 µM. The GI50 (HCT-15 colon) was 56.2 µM, the TGI (HCT-15 colon) was > 100 µM and the GI50 (UACC-257 melanoma) was > 100 µM. The TGI (UACC-257 melanoma) was > 100 µM, the GI50 (LXFL 529 NSCLC) was > 100 µM and the TGI (LXFL 529 NSCLC) was > 100 µM. For the same compound, the GI50 (SN12C renal) was > 100 µM, the TGI (SN12C renal) was > 100 µM and the GI50 (HCT-116 colon) was 45.5 µM. For the same compound, the TGI (HCT-116 colon) was 62.6 µM, the GI50 (HOP-18 NSCLC) was > 100 µM and the TGI (HOP-18 NSCLC) was > 100 µM. For the same compound, the GI50 (HCC-2998 colon) was > 100 µM, the TGI (HCC-2998 colon) was > 100 µM and the GI50 (ACHN renal) was > 100 µM. The TGI (ACHN renal) was > 100 µM, the GI50 (DLD-1 colon) was 42.8 µM and the TGI (DLD-1 colon) was 63.7 µM. For the same compound, the GI50 (NCI-H226 lung) was > 100 µM, the TGI (NCI-H226 lung) was > 100 µM and the GI50 (HT29 colon) was > 100 µM. The TGI (HT29 colon) was > 100 µM, the GI50 (HL-60(TB) leukemia) was 84.6 µM and the TGI (HL-60(TB) leukemia) was > 100 µM. The GI50 (CAKI-1 renal) was > 100 µM, the TGI (CAKI-1 renal) was > 100 µM and the GI50 (SK-MEL-5 melanoma) was > 100 µM. The TGI (SK-MEL-5 melanoma) was > 100 µM, the GI50 (TK-10 renal) was > 100 µM and the TGI (TK-10 renal) was > 100 µM. The GI50 (M19-MEL melanoma) was > 100 µM, the TGI (M19-MEL melanoma) was > 100 µM and the GI50 (SF-295 CNS) was > 100 µM. The TGI (SF-295 CNS) was > 100 µM, the GI50 (M14 melanoma) was > 100 µM and the TGI (M14 melanoma) was > 100 µM. The GI50 (SW-620 colon) was 41.6 µM, the TGI (SW-620 colon) was 59.5 µM and the GI50 (U251 CNS) was > 100 µM. For the same compound, the TGI (U251 CNS) was > 100 µM, the GI50 (HOP-62 NSCLC) was > 100 µM and the TGI (HOP-62 NSCLC) was > 100 µM. For the same compound, the GI50 (OVCAR-8 ovarian) was > 100 µM, the TGI (OVCAR-8 ovarian) was > 100 µM and the GI50 (RXF 393 renal) was 31.6 µM. For the same compound, the TGI (RXF 393 renal) was 31.6 µM, the GI50 (KM20L2 colon) was > 100 µM and the TGI (KM20L2 colon) was > 100 µM. The GI50 (SNB-75 CNS) was > 100 µM, the TGI (SNB-75 CNS) was > 100 µM and the GI50 (A498 renal) was > 100 µM. For the same compound, the TGI (A498 renal) was > 100 µM, the GI50 (NCI-H23 lung) was > 100 µM and the TGI (NCI-H23 lung) was > 100 µM. The GI50 (HOP-92 NSCLC) was > 100 µM, the TGI (HOP-92 NSCLC) was > 100 µM and the GI50 (SR leukemia) was 64.9 µM. For the same compound, the TGI (SR leukemia) was > 100 µM, the GI50 (SK-OV-3 ovarian) was > 100 µM and the TGI (SK-OV-3 ovarian) was > 100 µM. The GI50 (IGROV1 ovarian) was > 100 µM, the TGI (IGROV1 ovarian) was > 100 µM and the GI50 (DMS 273 small cell lung) was 97.2 µM. The TGI (DMS 273 small cell lung) was > 100 µM, the GI50 (K-562 leukemia) was > 100 µM and the TGI (K-562 leukemia) was > 100 µM. The GI50 (RXF-631 renal) was > 100 µM, the TGI (RXF-631 renal) was > 100 µM and the GI50 (OVCAR-5 ovarian) was > 100 µM. The TGI (OVCAR-5 ovarian) was > 100 µM, the GI50 (NCI-H460 lung) was 63.7 µM and the TGI (NCI-H460 lung) was > 100 µM. For the same compound, the GI50 (SF-268 CNS) was > 100 µM, the TGI (SF-268 CNS) was > 100 µM and the GI50 (KM12 colon) was > 100 µM. For the same compound, the TGI (KM12 colon) was > 100 µM, the GI50 (UACC-62 melanoma) was > 100 µM and the TGI (UACC-62 melanoma) was > 100 µM. The GI50 (NCI-H322M lung) was > 100 µM, the TGI (NCI-H322M lung) was > 100 µM and the GI50 (OVCAR-3 ovarian) was > 100 µM. The TGI (OVCAR-3 ovarian) was > 100 µM, the GI50 (NCI-H522 lung) was > 100 µM and the TGI (NCI-H522 lung) was > 100 µM. The GI50 (SNB-78 CNS) was > 100 µM, the TGI (SNB-78 CNS) was > 100 µM and the GI50 (OVCAR-4 ovarian) was > 100 µM. The TGI (OVCAR-4 ovarian) was > 100 µM, the GI50 (SK-MEL-28 melanoma) was > 100 µM and the TGI (SK-MEL-28 melanoma) was > 100 µM. For the same compound, the GI50 (A549 NSCLC) was > 100 µM, the TGI (A549 NSCLC) was > 100 µM and the GI50 (XF 498 CNS) was > 100 µM. The TGI (XF 498 CNS) was > 100 µM, the GI50 (SF-539 CNS) was > 100 µM and the TGI (SF-539 CNS) was > 100 µM. The GI50 (SNB-19 CNS) was > 100 µM, the TGI (SNB-19 CNS) was > 100 µM and the GI50 (COLO 205 colon) was 43.9 µM. For the same compound, the TGI (COLO 205 colon) was 61.4 µM, the GI50 (RPMI-8226 leukemia) was 46.4 µM and the TGI (RPMI-8226 leukemia) was 68.2 µM.
